From patent US20260384446A1, “PREPARATION FOR AND USE OF 7-HYDROXYLAMINE -SUBSTITUTED ALKYL CAMPTOTHECIN DERIVATIVES” (published 2026)

Legend:
[1] = tested on: human gastric cancer cells (NCI-N87); experiment: Inhibition of tumor cell growth activity (CCK-8, 72 h), NCI-N87; conditions: read-out: IC50 (nM) values of compounds inhibiting tumor cell growth, NCI-N87
[2] = tested on: human breast cancer cells (MDA-MB-231); experiment: Inhibition of tumor cell growth activity (CCK-8, 72 h), MDA-MB-231; conditions: read-out: IC50 (nM) values of compounds inhibiting tumor cell growth, MDA-MB-231, MDA-MB-231 cells
[3] = tested on: Human esophageal cancer cells (OE33); experiment: Inhibition of tumor cell growth activity (CCK-8, 72 h), OE33; conditions: read-out: IC50 (nM) values of compounds inhibiting tumor cell growth, OE33
Sk-Br-3 = experiment: Inhibition of tumor cell growth activity (CCK-8, 72 h), Sk-Br-3; conditions: read-out: IC50 (nM) values of compounds inhibiting tumor cell growth, Sk-Br-3, Sk-Br-3 cells
[4] = tested on: human lung cancer cells (NCI-H1975); experiment: Inhibition of tumor cell growth activity (CCK-8, 72 h), NCI-H1975; conditions: read-out: IC50 (nM) values of compounds inhibiting tumor cell growth, NCI-H1975

Row | Compound | IC50 [1] | IC50 [2] | IC50 [3] | IC50 (Sk-Br-3) | IC50 [4]
1 | CC[C@@]1(O)C(=O)OCc2c1cc1n(c2=O)Cc2c-1nc1ccccc1c2CNOC | 10 to 100 nM | 100 to 500 nM | 10 to 100 nM | 10 to 100 nM | 100 to 500 nM
2 | CC[C@@]1(O)C(=O)OCc2c1cc1n(c2=O)Cc2c-1nc1ccccc1c2CCNOC | < 10 nM | 100 to 500 nM | 10 to 100 nM | < 10 nM | 10 to 100 nM
3 | CC[C@@]1(O)C(=O)OCc2c1cc1n(c2=O)Cc2c-1nc1cc(F)c(F)cc1c2CCNOC | < 10 nM | 100 to 500 nM | < 10 nM | < 10 nM | 10 to 100 nM
4 | CC[C@@]1(O)C(=O)OCc2c1cc1n(c2=O)Cc2c-1nc1cc3c(cc1c2CCCNOC)OCO3 | < 10 nM | 10 to 100 nM | < 10 nM | < 10 nM | 10 to 100 nM
5 | CC[C@@]1(O)C(=O)OCc2c1cc1n(c2=O)Cc2c-1nc1cc(F)c(C)cc1c2CCNOC | < 10 nM | 10 to 100 nM | < 10 nM | < 10 nM | < 10 nM
6 | CC[C@@]1(O)C(=O)OCc2c1cc1n(c2=O)Cc2c-1nc1cc(F)c(C)c3c1c2[C@@H](NC(=O)CO)CC3 |  | 100 to 500 nM |  |  | 100 to 500 nM
7 | CC[C@@]1(O)C(=O)OCc2c1cc1n(c2=O)Cc2c-1nc1cc(F)c(F)cc1c2CNOC | 10 to 100 nM | 100 to 500 nM | < 10 nM | 10 to 100 nM | 10 to 100 nM
8 | CC[C@@]1(O)C(=O)OCc2c1cc1n(c2=O)Cc2c-1nc1cc(F)c(C)cc1c2CNOC | < 10 nM | 10 to 100 nM | < 10 nM | < 10 nM | 10 to 100 nM
9 | CC[C@@]1(O)C(=O)OCc2c1cc1n(c2=O)Cc2c-1nc1cc3c(cc1c2CNOC)OCO3 | < 10 nM | 10 to 100 nM | < 10 nM | < 10 nM | 10 to 100 nM
10 | CC[C@@]1(O)C(=O)OCc2c1cc1n(c2=O)Cc2c-1nc1cc3c(cc1c2CCNOC)OCO3 | < 10 nM | 100 to 500 nM | < 10 nM | < 10 nM | 10 to 100 nM
